Reference: patent US7402314B2, “In vivo activation of tumor-specific cytotoxic T cells” (The Scripps Research Institute, priority 1995, dated 2008)

Legend:
Experiment in all cases: Cytotoxicity assay, killing of tumors (Table 7)
Type in all cases: cell-based, human
U2-OS = settings: Osteosarcoma, A2 +
SKMEL-5 = settings: SKMEL-5, Melanoma, A2 +
OVCAR-5 = settings: OVCAR-5, Ovarian, A2 +
T98G = settings: Glioblastoma, A2 +
ST486 = settings: ST486, Lymphoma, A2 +
Hep-G2 = settings: Hep-G2, Hepatoma, A2 +
U87G = settings: Glioblastoma, A2 +
CASKI = settings: Cervix, A2 +
SV80 = settings: SV80, Fibroblast, A2 +
MALME-3M = settings: Melanoma, A2 +
SW480 = settings: SW480, Colon, A2 +
BT549 = settings: BT549, Breast, A2 +
NCI.H1355 = settings: NCI.H1355, Lung, A2 +
JY = settings: Lymphoma, A2 +
MDA.MB435 = settings: MDA.MB435, Breast, A2 −
MDA.M8231 = settings: MDA.M8231, Breast, A2 +
LG-2 = settings: LG-2, EBV-trans., A2 +
SAOS.175 = settings: SAOS.175, Osteosarcoma, A2 +
MCF-7 = settings: MCF-7, Breast, A2 +
[1] = + CYT (γ-IFN plus TNF-α, 24 hours)

CC[C@H](C)[C@H](NC(=O)[C@@H](N)CCCCN)C(=O)N[C@@H](Cc1ccccc1)C(=O)NCC(=O)N[C@@H](CO)C(=O)N[C@@H](CC(C)C)C(=O)N[C@@H](C)C(=O)N[C@@H](Cc1ccccc1)C(=O)N[C@@H](CC(C)C)C(=O)O [Peptide H3]
Killing of Tumors Expressing Her-2/neu (percent specific lysis) (U2-OS; [1]): 91%
Killing of Tumors Expressing Her-2/neu (percent specific lysis) (U2-OS; no cytokines): 32%
Killing of Tumors Expressing Her-2/neu (percent specific lysis) (SKMEL-5; [1]): 38%
Killing of Tumors Expressing Her-2/neu (percent specific lysis) (SKMEL-5; no cytokines): 6%
Killing of Tumors Expressing Her-2/neu (percent specific lysis) (OVCAR-5; [1]): 29%
Killing of Tumors Expressing Her-2/neu (percent specific lysis) (OVCAR-5; no cytokines): 25%
Killing of Tumors Expressing Her-2/neu (percent specific lysis) (T98G; [1]): 99%
Killing of Tumors Expressing Her-2/neu (percent specific lysis) (T98G; no cytokines): 20%
Killing of Tumors Expressing Her-2/neu (percent specific lysis) (ST486; [1]): 1%
Killing of Tumors Expressing Her-2/neu (percent specific lysis) (ST486; no cytokines): 1%
Killing of Tumors Expressing Her-2/neu (percent specific lysis) (Hep-G2; [1]): 20%
Killing of Tumors Expressing Her-2/neu (percent specific lysis) (Hep-G2; no cytokines): 4%
Killing of Tumors Expressing Her-2/neu (percent specific lysis) (U87G; [1]): 1%
Killing of Tumors Expressing Her-2/neu (percent specific lysis) (U87G; no cytokines): 2%
Killing of Tumors Expressing Her-2/neu (percent specific lysis) (CASKI; [1]): 30%
Killing of Tumors Expressing Her-2/neu (percent specific lysis) (CASKI; no cytokines): 13%
Killing of Tumors Expressing Her-2/neu (percent specific lysis) (SV80; [1]): 8%
Killing of Tumors Expressing Her-2/neu (percent specific lysis) (SV80; no cytokines): 4%
Killing of Tumors Expressing Her-2/neu (percent specific lysis) (MALME-3M; [1]): 57%
Killing of Tumors Expressing Her-2/neu (percent specific lysis) (MALME-3M; no cytokines): 28%
Killing of Tumors Expressing Her-2/neu (percent specific lysis) (SW480; [1]): 50%
Killing of Tumors Expressing Her-2/neu (percent specific lysis) (SW480; no cytokines): 6%
Killing of Tumors Expressing Her-2/neu (percent specific lysis) (BT549; [1]): 40%
Killing of Tumors Expressing Her-2/neu (percent specific lysis) (BT549; no cytokines): 2%
Killing of Tumors Expressing Her-2/neu (percent specific lysis) (NCI.H1355; [1]): 38%
Killing of Tumors Expressing Her-2/neu (percent specific lysis) (NCI.H1355; no cytokines): 11%
Killing of Tumors Expressing Her-2/neu (percent specific lysis) (JY; [1]): 1%
Killing of Tumors Expressing Her-2/neu (percent specific lysis) (JY; no cytokines): 2%
Killing of Tumors Expressing Her-2/neu (percent specific lysis) (MDA.MB435; [1]): 2%
Killing of Tumors Expressing Her-2/neu (percent specific lysis) (MDA.MB435; no cytokines): 3%
Killing of Tumors Expressing Her-2/neu (percent specific lysis) (MDA.M8231; [1]): 85%
Killing of Tumors Expressing Her-2/neu (percent specific lysis) (MDA.M8231; no cytokines): 34%
Killing of Tumors Expressing Her-2/neu (percent specific lysis) (LG-2; [1]): 4%
Killing of Tumors Expressing Her-2/neu (percent specific lysis) (LG-2; no cytokines): 2%
Killing of Tumors Expressing Her-2/neu (percent specific lysis) (SAOS.175; [1]): 33%
Killing of Tumors Expressing Her-2/neu (percent specific lysis) (SAOS.175; no cytokines): 27%
Killing of Tumors Expressing Her-2/neu (percent specific lysis) (MCF-7; [1]): 54%
Killing of Tumors Expressing Her-2/neu (percent specific lysis) (MCF-7; no cytokines): 7%
